# Antibody variant affinities, Ab-14 light chain, assay B

Values reported by Li et al. 2023, doi:10.1038/s41467-023-39022-2 (FLAb copy).

Antigen: PDVDLGDISGINAS, a 14-residue peptide of the SARS-CoV-2 spike HR2 region.

Parent scFv Ab-14: VH joined to VL by the linker GGGGSGGGGSGGGGS. Changes lie in the light chain CDRs alone.
VH: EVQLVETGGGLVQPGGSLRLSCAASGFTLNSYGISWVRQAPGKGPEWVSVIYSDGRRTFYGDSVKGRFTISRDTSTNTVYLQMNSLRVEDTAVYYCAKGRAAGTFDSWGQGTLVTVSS
VL: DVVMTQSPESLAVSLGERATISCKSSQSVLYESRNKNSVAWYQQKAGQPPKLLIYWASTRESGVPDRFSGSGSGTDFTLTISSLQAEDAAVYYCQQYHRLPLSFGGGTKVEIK

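Phage display of a naive human antibody library on the peptide gave the parent. The variants were designed computationally from a first round of random CDR variants and then made and measured. Their group label is 14L_En_HC (En: ensemble of fine-tuned language models; HC: hill climbing; a sequence that several methods proposed may carry one label only). The scFvs were displayed on barcoded MATa yeast, the peptide on MATalpha yeast. After mating in shaken culture at 30 °C for 16 h, diploids were selected and their barcode pairs sequenced. Read counts were normalised to the haploid input and turned into Kd by a linear fit to BCL2-family pairs of known affinity, for each replicate. Mating was done six times.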

Variants are written as CDR1, CDR2 and CDR3 of the light chain (limits as in the source). Parent: KSSQSVLYESRNKNSVA, WASTRES, QQYHRLPLS. Affinities are written as log10 Kd with Kd in nM; a lower number is a better binder. Where no diploid with the target was found in that replicate, the entry reads "ND": below detection, most likely a poor binder, though not proof of it. The parent sequence was in this pool as ten entries: three were never detected, three once, and four in most replicates, with averages from 0.34 to 2.37.

CDR-L1,CDR-L2,CDR-L3,"replicates, log10 nM",signal with controls
TLTQVQGMLSHNKNSVA,DLSTRGS,QQYHRLPLS,0.42 / 0.21 / 0.27 / -0.01 / 0.26 / 0.23,3 of 18 (2.48)
TIGQMFNGEQRNRNSVA,QASTRES,QSYDRLPLS,1.41 / 1.06 / 0.62 / 0.28 / 0.72 / 0.99,0 of 18
ILSDSVLQLSRNKNSVA,DNSTRES,QQYDRLPLS,0.15 / 0.07 / -0.11 / -0.13 / 0.04 / -0.13,4 of 18 (2.11)
KISQTFNVGTKMKNSLA,EMSTREF,QDYHRLPLS,1.77 / 1.16 / 0.73 / 1.47 / 1.01 / 1.01,0 of 18
IISQVDAYESRNKSSIA,DQSTRGS,QQYDRLPLS,1.31 / 1.15 / 1.44 / 2.19 / 1.50 / 1.44,1 of 18 (2.32)
KLPLATMQASVSKNNVA,ELSTRGS,QQYHRLPLS,0.86 / 0.80 / 0.41 / 0.75 / 0.41 / 0.76,2 of 18 (3.76)
HISESMYFQSRNKNNIA,EMSTREY,QHYHRLPLS,0.67 / 0.51 / 0.58 / 0.43 / 0.35 / 0.76,2 of 18 (2.22)
MISDLTMYGSRIKNSVA,DLSTRGS,QQYHRLPLS,1.48 / 0.58 / 0.14 / 0.00 / 0.19 / 0.72,1 of 18 (2.85)
KIGHGLTTEMRNKNSVA,QTETRVS,QHYHRLPLS,1.27 / ND / 1.85 / ND / ND / ND,0 of 18
MISQLFMYGTRNYNSIA,QASTREK,QQYDRLPLI,0.47 / 1.11 / 0.78 / 0.61 / 1.16 / 1.46,2 of 18 (2.02)
HISQMVSYGSCMKNNVA,QVSTREE,QQYHRLPLS,0.90 / 1.00 / 1.01 / 0.92 / 0.69 / 1.07,5 of 18 (3.05)
TIAQSMVYLSNLKNSIA,QAETRES,QQYHRLPIS,1.53 / 0.91 / 0.57 / 0.75 / 0.64 / 1.07,0 of 18
HMSQVTMYGYWNMNSVA,QTSTREE,QQYDRLPLS,1.16 / 2.59 / 2.43 / 1.49 / ND / 2.72,0 of 18
ALSQSTDLESVHKNSIA,DLMTRES,QQYHRLPLS,0.17 / 1.00 / 1.49 / 0.55 / 1.04 / 0.65,0 of 18
TISMSTYWESRNKNSVA,QTSTREE,QDYDRLPLS,ND / ND / ND / ND / ND / ND,0 of 18
KISGMLQKESKNKNSVA,EMVNRES,QQYDRLPLS,0.62 / 0.18 / 0.38 / 0.35 / 0.33 / 0.16,1 of 18 (1.95)
MISDLMLYGSRARNPIA,NASTREY,QQYHRLPLE,0.85 / 0.94 / 1.23 / 0.97 / 0.58 / 0.96,1 of 18 (3.29)
KLSQVTHVESRNKNSIA,EMVTREY,QQYDRLPLS,0.89 / 0.56 / 0.99 / 0.52 / 0.45 / 0.53,1 of 18 (1.58)
ALSQSMDMTSRNVNSVA,DLTTRMN,QQYHRLPLS,0.16 / 0.32 / 0.26 / 0.20 / 0.48 / 0.56,1 of 18 (1.46)
HFSQVTMYGYWNKNSVA,QTSTREE,QQYDKLPLS,ND / ND / ND / 2.52 / ND / 2.86,1 of 18 (2.84)
MFSQVMEYGSRYKNSVA,QASTRED,QQYHWLPLS,0.68 / 0.37 / 1.59 / 0.97 / 0.49 / 1.38,1 of 18 (2.38)
TISQSTYWESRNKNSVA,QTSTRME,QDYDRLPLS,0.92 / 1.04 / 1.11 / 1.25 / 1.08 / 1.03,3 of 18 (3.44)
KIGGVTNGISRNANSVA,EQSTRED,QQYNRLPLS,0.30 / 0.28 / 0.23 / -0.06 / 0.07 / 0.43,2 of 18 (3.21)
MVGQGLMGESRAKNSIA,QASMRFD,QQYHRLPLI,1.42 / 2.43 / 1.89 / 2.25 / 0.95 / ND,1 of 18 (2.71)
KLSQVTHSESRNKNSIA,EMVTREM,QQYDRLPLS,1.15 / 0.52 / 0.13 / 0.49 / 0.51 / 0.65,2 of 18 (1.81)
TISQSMLYLSNMKNSVA,QAETRES,QQYHRLPIS,2.53 / 3.28 / ND / ND / ND / 2.69,0 of 18
KLSMSYRYEQENKNSIA,ELVTRMS,QQYHRLPLS,0.82 / 0.76 / 1.65 / 1.28 / 0.88 / 1.00,0 of 18
TISQSFMMENQFKNSVA,QATTRES,QCYDRLPLS,2.09 / 1.73 / ND / ND / 2.95 / 2.88,0 of 18
TISGMANYESTNKNSVA,ELTMRGS,QQYERLPLS,0.94 / 0.86 / 0.93 / 0.87 / 0.96 / 1.15,0 of 18
IISQSFLGENHNKNSVA,QTSERGS,QQYDRLPLS,0.48 / 0.29 / 0.27 / -0.08 / 0.25 / 0.30,2 of 18 (3.24)
QLYAVQDMTSKNKNSVA,EQSTREN,QQYHRLPLS,1.72 / 1.13 / 0.80 / 0.86 / 1.03 / 1.36,2 of 18 (2.69)
KISQMSTIESIMHNSVA,QTSTREN,QQYDRLPLS,-0.01 / 0.09 / -0.19 / -0.21 / -0.11 / 0.14,1 of 18 (2.39)
NFSQMVLTGSTLKNSVA,HAQTREE,QQYHRLPLI,0.44 / 0.58 / 0.90 / 0.98 / 0.56 / 1.07,1 of 18 (1.97)
IVSQSVLGESRNLNSVA,QTSEREY,QQYDRLPLS,1.46 / 1.12 / 2.43 / 2.40 / 2.45 / 1.60,0 of 18
TISQSFLMENQFKNSVA,QASTRIS,QCYDRLPLS,ND / 2.11 / ND / 2.49 / ND / 2.09,0 of 18
KLYQATAMTSSMRNNVA,DLNERER,QQYFRLPLS,0.37 / 0.05 / -0.09 / 0.12 / 0.22 / 0.35,0 of 18
KFGQSVLMGSYVRNSVA,QSNTREN,QQYDRLPLS,0.18 / 0.26 / 0.22 / 0.28 / 0.23 / 0.56,0 of 18
KIMQSLNYESFGKNSVA,GQETRER,QSYHRLPLS,2.24 / 4.57 / 2.79 / 1.70 / 1.12 / 2.21,1 of 18 (2.25)
HISTMMRYESSLKNAIA,NAQTRES,QQYHRLPLS,0.40 / 0.24 / 0.05 / 0.13 / 0.13 / 0.37,2 of 18 (2.85)
KISQSVMYMSSVYNSVA,QMSTREE,QQYNRLPLS,ND / ND / ND / 1.32 / ND / ND,0 of 18
MISDLMLYGSRNRNPIA,NASTREY,QQYHRLPLS,0.85 / 1.31 / 0.64 / 1.12 / 0.69 / 0.87,1 of 18 (2.49)
KISYMGEQFSTNHSSIA,QASTREQ,QQYHRLPLS,1.10 / 0.87 / 0.87 / 1.22 / 1.13 / 1.33,0 of 18
MMSMGFLGGSRAKNNVA,QESTRES,QQYHRLPLI,0.61 / 1.20 / 0.55 / 0.89 / 1.05 / 1.05,2 of 18 (2.46)
KISSLTMYESVEKNNIA,EMSTRPS,QSYHRLPLS,1.69 / 2.41 / 3.02 / 1.74 / ND / ND,0 of 18

4 of these entries, quoted again:

CDR-L1,CDR-L2,CDR-L3,"replicates, log10 nM",signal with controls
IVSQSVLGESRNLNSVA,QTSEREY,QQYDRLPLS,1.46 / 1.12 / 2.43 / 2.40 / 2.45 / 1.60,0 of 18
ALSQSTDLESVHKNSIA,DLMTRES,QQYHRLPLS,0.17 / 1.00 / 1.49 / 0.55 / 1.04 / 0.65,0 of 18
MVGQGLMGESRAKNSIA,QASMRFD,QQYHRLPLI,1.42 / 2.43 / 1.89 / 2.25 / 0.95 / ND,1 of 18 (2.71)
KISQMSTIESIMHNSVA,QTSTREN,QQYDRLPLS,-0.01 / 0.09 / -0.19 / -0.21 / -0.11 / 0.14,1 of 18 (2.39)

In the paper, a design with two or fewer of six values counts as a poor binder. Three control strains display no target. For all light chain designs, 4% of the pairings with them gave a signal, with a median of 2.64 and one signal in twenty below 1.59, so weak values seen in few replicates may be background. The control count says in how many pairings with the empty strains this scFv gave a signal, with their mean in brackets. The range of this assay differs from that of the first round, and the authors advise against merging the two.